Results published in ChEMBL document CHEMBL5727194, “Factor IXa inhibitors” (2019).

Protein sequences, listed by entry. Tags and fused reporters are not part of them. Residues count along the entry.
UniProt P00740, 227-461 limits assumed: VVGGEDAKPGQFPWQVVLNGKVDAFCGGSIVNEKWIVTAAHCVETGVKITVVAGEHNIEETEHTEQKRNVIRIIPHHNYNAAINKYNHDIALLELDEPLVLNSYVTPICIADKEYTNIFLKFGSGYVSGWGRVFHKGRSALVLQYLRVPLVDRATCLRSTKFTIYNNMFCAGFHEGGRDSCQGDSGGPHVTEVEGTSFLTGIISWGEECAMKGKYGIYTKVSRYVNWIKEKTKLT
UniProt P00740, 47-191 limits assumed: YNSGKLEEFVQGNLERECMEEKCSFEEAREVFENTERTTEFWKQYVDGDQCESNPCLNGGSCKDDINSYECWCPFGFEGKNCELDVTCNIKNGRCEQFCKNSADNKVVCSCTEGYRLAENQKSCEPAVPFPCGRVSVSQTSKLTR

Molecular target: Coagulation factor IX (Homo sapiens, UniProt P00740)

Compound	IC50
Cc1ccc2c(c1)c(CCC(N)=O)c1n2C[C@@](NC(=O)c2ccc(-n3cnnc3)cc2Cl)(c2ccccc2)CC1	2.55 nM
Cc1ccc2c(c1)c(C(=O)O)c1n2C[C@@](NC(=O)c2ccc(-n3cnc(C)n3)cc2Cl)(c2ccccc2)CC1	1.03 nM
